The entries are a selection whose mix differs from that of the whole data set. Some tests of the compounds listed are not included; inactive here does not mean inactive elsewhere. Activity calls are given as the source filed them. No stated cut-off is given here; in the data, active means inhibition above about 21%; inactive means the rest.

This assay deals with Cathepsin B (Homo sapiens) (UniProt P07858). The assay is described as follows: blockers of cathepsin B proteolysis – biochemical, fluorogenic substrate, primary screen (AID 453).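 Further: 0% = enzyme with no compound and 100% = no enzyme blank.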 The conditions noted are these: purified cathepsin B, fluorescence, active compounds read high,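 tested at 10 µM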.
In general, inhibition refers to the drop in the measured response relative to a control, in per cent. As for `O=C(OC1CN2CCC1CC2)C(CO)(c1ccccc1)c1ccccc1` (configuration not stated), the inhibition was inactive: -2.83%.
Regarding `CN(C)c1cccc(C(=O)NCC2(N(C)C)CCCCC2)c1`, the inhibition was inactive: 5.91%.

(Values after PubChem BioAssay AID453 (PCMD, 2006).)
